In article PMC11400633, “Peptides inhibiting the assembly of monomeric human L‐lactate dehydrogenase into catalytically active homotetramer decrease the synthesis of lactate in cultured cells” (Protein Science : A Publication of the Protein Society, 2024):

Columns and labels:
monomeric hLDH‐A = target: T1, monomeric hLDH‐A (Homo sapiens, UniProt P00338); experiment: SPR binding of β-NADH to immobilized monomeric hLDH-A; settings: pH 7.0, linear dependence of response up to 10 mM β-NADH
T1 construct: made in house; host or cells: E. coli BL21(DE3), pET9a (NdeI/BamHI)
Experimental: (§1) To further inspect the biochemical features of monomeric LDH‐A, we analyzed the binding of β‐NADH to LDH‐A (at pH 7.5) by Surface Plasmon Resonance (SPR). First, we tested the association between the tetrameric enzyme and the redox cofactor. […] However, by decreasing to 7.0 the pH of the binding assay, the observed amplitude was more than twice the corresponding response at pH 7.5 (Figure S4). […] However, it should be considered that the DLS experiments were carried out with free LDH‐A monomers, whereas the SPR assays were performed with immobilized enzyme which therefore is incapable to assemble into the tetrameric form. Accordingly, we propose that the binding of β‐NADH and the assembly of monomers represent a concerted action, the occurrence of which is hampered by the immobilization of LDH‐A.
FIGURE 4 Binding of β‐NADH to tetrameric and monomeric hLDH‐A. (a) Kinetics of the association of β‐NADH to tetrameric hLDH‐A as detected by surface plasmon resonance. Sensorgrams were observed loading increasing concentration of β‐NADH (0.49–125 μM) on a sensor chip modified with immobilized tetrameric human LDH‐A. (b) Determination of the K D of hLDH‐A for β‐NADH. The response units refer to the data shown in “a.” The continuous lines represent the best fit of a parametric rectangular hyperbola to the experimental observations. […]

tetrameric LDH‐A = target: T2, tetrameric LDH‐A (Homo sapiens, UniProt P00338); experiment: SPR binding of β-NADH to immobilized tetrameric hLDH-A; settings: 50 mM HEPES pH 7.5, 25°C
T2 construct: made in house; host or cells: E. coli BL21(DE3), pET9a (NdeI/BamHI)
Experimental: as §1
FIGURE 4 Binding of β‐NADH to tetrameric and monomeric hLDH‐A. (a) Kinetics of the association of β‐NADH to tetrameric hLDH‐A as detected by surface plasmon resonance. Sensorgrams were observed loading increasing concentration of β‐NADH (0.49–125 μM) on a sensor chip modified with immobilized tetrameric human LDH‐A. (b) Determination of the K D of hLDH‐A for β‐NADH. The response units refer to the data shown in “a.” The continuous lines represent the best fit of a parametric rectangular hyperbola to the experimental observations. (c) Sensorgrams observed loading increasing concentration of β‐NADH (0.25–10 mM) on a sensor chip modified with immobilized monomeric human LDH‐A. (d) Linear dependence of the response units reported in “c” on the concentration of loaded β‐NADH. The continuous line represents the best fit of a linear equation to the experimental observations.
The binding of β‐NADH by monomeric and tetrameric hLDH‐A was assayed using a Biacore T200 instrument (Cytiva, Marlborough, MA). Both monomeric and tetrameric LDH‐A were immobilized on a Xantec CMD500 chip at a concentration of 30 μg/ml in 10 mM HEPES, pH 7 using a standard amine coupling protocol, yielding an observed immobilization level of 6984 and 17,424 response units (Rus), respectively. The binding of β‐NADH to hLDH‐A was tested in 50 mM HEPES, pH 7.5, at 25°C, using a flow rate of 50 μl/min, with 60 and 10 s of association and dissociation time, respectively. The elaboration of sensorgrams was achieved using the BIAevaluation software.

For β‐NADH, the “K D for the monomer‐coenzyme binary complex” value (monomeric hLDH‐A) was “cannot be determined”, the Kd (tetrameric LDH‐A; independent assay 1 of 3, read-out: K D of the enzyme–cofactor complex) was 28 µM and the Kd (tetrameric LDH‐A; independent assay 2 of 3, read-out: K D of the enzyme–cofactor complex) was 22 µM. For the same substance, the Kd (tetrameric LDH‐A; independent assay 3 of 3, read-out: K D of the enzyme–cofactor complex) was 21 µM and the Kd (tetrameric LDH‐A; mean of three independent assays, read-out: K D of the enzyme–cofactor complex, mean value) was 23 ± 4 µM.

Like-named read-outs stand apart in the source and are kept apart here.
